Reference: ChEMBL document CHEMBL3352089 (J Med Chem, 2014)

Experiments:
Format in all cases: cell-based
Settings in all cases: read-out: Activity
[1] = Cytotoxicity against human HepG2 cells assessed as cell viability at 1 uM after 4 hrs by Cell-Titer Glo assay
[2] = Cytotoxicity against human HepG2 cells assessed as cell viability at 1 uM after 24 hrs by Cell-Titer Glo assay
[3] = Cytotoxicity against human HepG2 cells assessed as cell viability at 100 uM after 4 hrs by Cell-Titer Glo assay
[4] = Cytotoxicity against human HepG2 cells assessed as cell viability at 10 uM after 4 hrs by Cell-Titer Glo assay

Structure (SMILES): Cc1ccc(NC(=O)c2ccc(CN3CCN(C)CC3)cc2)cc1Nc1nccc(-c2cccnc2)n1 [IMATINIB]
- viability at 4 h, 1 µM [1]: > 75%
- viability at 24 h, 1 µM [2]: > 75%
- viability at 4 h, 100 µM [3]: 75%
- viability at 4 h, 10 µM [4]: > 75%
